Test system: Human Monomac 6 cells
Experiment: Inhibition of TNF release in vitro assay (LPS/PMA stimulated)
Settings: Conc. 10 μM, LPS/PMA stimulated Monomac 6 cells, 2 h

**Q.** For O=C(NO)[C@H](CSc1ccccc1)NS(=O)(=O)N1CCN(c2ccc(Cl)cn2)CC1, which “% inhibition” value is on record?
**A.** 41%
